Assay results: publication PMC8151276, “An Integrated Approach toward NanoBRET Tracers for Analysis of GPCR Ligand Engagement” (Molecules, 2021)
Blank lines part the entries; values can stand above or below the compound they belong to.

Sequences of proteins named here, by UniProt entry; tags and fusion partners are left off. A change or cut given only in a name is not applied to a line headed by its entry.
UniProt P33032: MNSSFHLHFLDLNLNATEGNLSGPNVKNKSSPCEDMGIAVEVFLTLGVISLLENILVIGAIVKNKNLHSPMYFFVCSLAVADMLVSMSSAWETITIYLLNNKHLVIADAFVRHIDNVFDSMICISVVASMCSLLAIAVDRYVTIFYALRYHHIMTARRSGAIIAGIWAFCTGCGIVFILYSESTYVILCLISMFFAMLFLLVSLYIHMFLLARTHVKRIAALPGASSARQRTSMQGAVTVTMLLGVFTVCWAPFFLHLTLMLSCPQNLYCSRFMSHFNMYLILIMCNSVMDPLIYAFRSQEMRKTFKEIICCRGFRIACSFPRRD
UniProt P25100, whole entry: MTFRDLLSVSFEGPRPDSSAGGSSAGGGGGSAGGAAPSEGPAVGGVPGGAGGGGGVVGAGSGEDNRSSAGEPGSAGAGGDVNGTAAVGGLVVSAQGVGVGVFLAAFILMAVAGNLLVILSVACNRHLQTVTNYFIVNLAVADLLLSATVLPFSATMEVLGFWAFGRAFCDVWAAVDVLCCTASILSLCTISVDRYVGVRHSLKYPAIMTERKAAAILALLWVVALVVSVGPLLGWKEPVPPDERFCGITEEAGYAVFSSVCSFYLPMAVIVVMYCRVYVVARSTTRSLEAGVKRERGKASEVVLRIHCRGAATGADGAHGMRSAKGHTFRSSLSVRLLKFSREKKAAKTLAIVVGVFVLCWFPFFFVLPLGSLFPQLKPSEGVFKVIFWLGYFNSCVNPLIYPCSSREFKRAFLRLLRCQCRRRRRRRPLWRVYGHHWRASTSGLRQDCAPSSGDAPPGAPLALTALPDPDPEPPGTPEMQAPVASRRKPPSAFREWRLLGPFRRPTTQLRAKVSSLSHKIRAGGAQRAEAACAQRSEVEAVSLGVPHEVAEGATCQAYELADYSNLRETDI
UniProt Q9GZQ6: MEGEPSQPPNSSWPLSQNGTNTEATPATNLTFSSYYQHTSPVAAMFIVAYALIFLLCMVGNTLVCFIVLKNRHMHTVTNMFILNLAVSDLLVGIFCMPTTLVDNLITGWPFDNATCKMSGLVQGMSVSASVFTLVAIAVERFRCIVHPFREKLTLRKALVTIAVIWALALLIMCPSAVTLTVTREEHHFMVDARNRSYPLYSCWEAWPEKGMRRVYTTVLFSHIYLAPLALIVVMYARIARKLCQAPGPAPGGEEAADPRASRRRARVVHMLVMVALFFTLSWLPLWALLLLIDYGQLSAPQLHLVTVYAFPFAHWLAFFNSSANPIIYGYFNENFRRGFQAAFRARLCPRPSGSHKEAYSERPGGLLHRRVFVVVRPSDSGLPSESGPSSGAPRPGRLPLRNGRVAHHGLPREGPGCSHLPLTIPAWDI
UniProt P08912, whole entry: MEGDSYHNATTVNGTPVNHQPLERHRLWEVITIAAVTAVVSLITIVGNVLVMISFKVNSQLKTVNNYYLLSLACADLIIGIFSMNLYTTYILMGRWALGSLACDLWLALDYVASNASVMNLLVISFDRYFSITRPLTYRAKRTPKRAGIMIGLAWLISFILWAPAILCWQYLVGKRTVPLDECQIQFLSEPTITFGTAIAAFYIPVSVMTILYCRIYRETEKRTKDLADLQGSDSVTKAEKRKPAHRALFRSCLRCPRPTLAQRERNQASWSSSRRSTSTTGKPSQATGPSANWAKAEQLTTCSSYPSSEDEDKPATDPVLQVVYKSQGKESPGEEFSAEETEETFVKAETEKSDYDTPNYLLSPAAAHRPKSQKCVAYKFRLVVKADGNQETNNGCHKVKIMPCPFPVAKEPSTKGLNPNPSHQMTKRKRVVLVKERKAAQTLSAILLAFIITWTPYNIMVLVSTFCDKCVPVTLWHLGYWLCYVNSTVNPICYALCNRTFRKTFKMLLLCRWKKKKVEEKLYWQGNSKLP
UniProt P25103, whole entry: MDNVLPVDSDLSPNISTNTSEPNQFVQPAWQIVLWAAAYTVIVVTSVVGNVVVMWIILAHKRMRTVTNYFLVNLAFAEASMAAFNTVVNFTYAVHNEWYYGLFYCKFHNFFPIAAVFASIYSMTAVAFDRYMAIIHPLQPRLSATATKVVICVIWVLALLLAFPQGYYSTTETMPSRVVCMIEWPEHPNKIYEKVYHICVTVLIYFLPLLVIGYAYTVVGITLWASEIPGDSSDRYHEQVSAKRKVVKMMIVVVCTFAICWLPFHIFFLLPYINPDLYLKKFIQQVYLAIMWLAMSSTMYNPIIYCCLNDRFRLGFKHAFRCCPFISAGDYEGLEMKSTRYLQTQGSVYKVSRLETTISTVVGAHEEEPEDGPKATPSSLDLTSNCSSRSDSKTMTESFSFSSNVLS

Tests used:
Format in all cases: binding
MC5R = molecular target: T1, MC5R (Homo sapiens, UniProt P33032); assay: NanoBRET screen HiBiT-MC5R in HEK293
T1 construct: purchased Promega (in-house HiBiT-GPCR construct library, NanoBRET)
Experimental: (§1) Each tracer candidate was screened across the entire library of HiBiT-GPCR constructs using NanoBRET as the detection modality. As depicted in Figure 4A, the specificity of interactions was evaluated through decrease in BRET due to competitive displacement of a bound tracer by excess parental compound. Each tracer was analyzed for binding to each HiBiT-GPCR fusion in the absence and in the presence of competing parental compound. Briefly, HEK293 cells were transfected with HiBiT-GPCR constructs diluted into promoterless DNA to reduce expression and maximize translocation to the cell surface. Each tracer candidate was then screened at concentrations of 1 μM and 0.1 μM across cells expressing these fusions. Cells were treated for 1.5 h with tracer either alone or in the presence of 20 μM competing parental compound (i.e., control). BRET was measured upon addition of purified LgBiT and subsequent complementation with HiBiT genetically fused to a GPCR. The specificity of interactions was assessed through a decrease in BRET signal due to competitive displacement of the bound tracer. To further gauge the robustness of these interactions, the fold response over the control (i.e., BRETtracer/BRETcontrol) was calculated. We chose a 1.5-fold response, which translates to ≥7-fold signal over noise as the minimal threshold required to score an interaction as positive. […]. Below we highlight the screening results obtained for our exemplary fluorescent tracers based on Clozapine, Amitriptyline and AZD1283.
(§2) HiBiT-GPCR DNA constructs were diluted in 10 mM Tris pH 8 to a final concentration of 0.01 μg/μL, arrayed in 96-well plates and stored at −20 °C. For transfection, HEK293 cells were suspended in Opti-MEM (without phenol red) supplemented with 2% fetal bovine serum (Seradigm) and 100 units/mL penicillin–streptomycin (Gibco) at a final concentration of 220,000 cells/mL and dispensed into white 96-well plates at 90 μL/well. Subsequent transfections and screens were carried using an Agilent Bravo Automated Liquid Handling Platform. First, the 96-well HiBiT DNA arrays were diluted 25-fold in Opti-MEM (without serum or phenol red) to a final concentration of 0.0004 μg/μL and 20 μL of the diluted DNAs were transferred into new 96-well plates. Next, promoterless carrier DNA (1 μg/μL) was diluted 25-fold (0.04 μg/μL) and then dispensed into the diluted arrays at 20 μL/well. Following brief mixing, Viafect transfection reagent (Promega) diluted 16-fold into Opti-MEM was dispensed into the plates at 40 μL/well. After mixing by pipetting, plates were incubated for 10 min on the pipetting station deck. The DNA-transfection reagent complexes were then added to plates containing cells. To facilitate the screen, 10 μL of DNA-transfection reagent complexes were added in duplicates to the top 4 and bottom 4 rows, resulting in two identical 48-well arrays per plate. Plates with transfected cells were incubated for 18–20 h at 37 °C/5% CO2. A screen of each tracer across the entire library using two different concentrations requires duplicate plates of transfected cells. Depending on the number of tracers being screened, transfections can be scaled up using the same ratios. The next day, for each tracer, four 20× screening solutions in tracer dilution buffer (Promega) were prepared: two duplicates at final concentration of 20 μM and two duplicates at a final concentration of 2 μM. A competing unmodified compound was added to one of each duplicate at a final concentration of 400 μM. […]

ADRA1D = molecular target: T2, ADRA1D (Homo sapiens, UniProt P25100); assay: NanoBRET screen HiBiT-ADRA1D in HEK293
T2 construct: purchased Promega (in-house HiBiT-GPCR construct library, NanoBRET)
Experimental: (§3) Each tracer candidate was screened across the entire library of HiBiT-GPCR constructs using NanoBRET as the detection modality. As depicted in Figure 4A, the specificity of interactions was evaluated through decrease in BRET due to competitive displacement of a bound tracer by excess parental compound. Each tracer was analyzed for binding to each HiBiT-GPCR fusion in the absence and in the presence of competing parental compound. Briefly, HEK293 cells were transfected with HiBiT-GPCR constructs diluted into promoterless DNA to reduce expression and maximize translocation to the cell surface. Each tracer candidate was then screened at concentrations of 1 μM and 0.1 μM across cells expressing these fusions. Cells were treated for 1.5 h with tracer either alone or in the presence of 20 μM competing parental compound (i.e., control). BRET was measured upon addition of purified LgBiT and subsequent complementation with HiBiT genetically fused to a GPCR. The specificity of interactions was assessed through a decrease in BRET signal due to competitive displacement of the bound tracer. To further gauge the robustness of these interactions, the fold response over the control (i.e., BRETtracer/BRETcontrol) was calculated. We chose a 1.5-fold response, which translates to ≥7-fold signal over noise as the minimal threshold required to score an interaction as positive.
HiBiT-GPCR DNA constructs were diluted in 10 mM Tris pH 8 to a final concentration of 0.01 μg/μL, arrayed in 96-well plates and stored at −20 °C. For transfection, HEK293 cells were suspended in Opti-MEM (without phenol red) supplemented with 2% fetal bovine serum (Seradigm) and 100 units/mL penicillin–streptomycin (Gibco) at a final concentration of 220,000 cells/mL and dispensed into white 96-well plates at 90 μL/well. Subsequent transfections and screens were carried using an Agilent Bravo Automated Liquid Handling Platform. […]

NPFFR1 = molecular target: T3, NPFFR1 (Homo sapiens, UniProt Q9GZQ6); assay: NanoBRET screen HiBiT-NPFFR1 in HEK293
T3 construct: purchased Promega (in-house HiBiT-GPCR construct library, NanoBRET)
Experimental: as §1, §2

CHRM5 = molecular target: T4, CHRM5 (Homo sapiens, UniProt P08912); assay: NanoBRET screen HiBiT-CHRM5 in HEK293; conditions: CHRM5; 1μM tracer
T4 construct: purchased Promega (in-house HiBiT-GPCR construct library, NanoBRET)
Experimental: as §3, with “positive. […]. […]” for “positive.”

FZD10 = molecular target: T5, FZD10 (Homo sapiens, UniProt Q9ULW2); assay: NanoBRET screen HiBiT-FZD10 in HEK293; conditions: 1μM tracer
T5 construct: purchased Promega (in-house HiBiT-GPCR construct library, NanoBRET)
T5 sequence (Q9ULW2 21-581): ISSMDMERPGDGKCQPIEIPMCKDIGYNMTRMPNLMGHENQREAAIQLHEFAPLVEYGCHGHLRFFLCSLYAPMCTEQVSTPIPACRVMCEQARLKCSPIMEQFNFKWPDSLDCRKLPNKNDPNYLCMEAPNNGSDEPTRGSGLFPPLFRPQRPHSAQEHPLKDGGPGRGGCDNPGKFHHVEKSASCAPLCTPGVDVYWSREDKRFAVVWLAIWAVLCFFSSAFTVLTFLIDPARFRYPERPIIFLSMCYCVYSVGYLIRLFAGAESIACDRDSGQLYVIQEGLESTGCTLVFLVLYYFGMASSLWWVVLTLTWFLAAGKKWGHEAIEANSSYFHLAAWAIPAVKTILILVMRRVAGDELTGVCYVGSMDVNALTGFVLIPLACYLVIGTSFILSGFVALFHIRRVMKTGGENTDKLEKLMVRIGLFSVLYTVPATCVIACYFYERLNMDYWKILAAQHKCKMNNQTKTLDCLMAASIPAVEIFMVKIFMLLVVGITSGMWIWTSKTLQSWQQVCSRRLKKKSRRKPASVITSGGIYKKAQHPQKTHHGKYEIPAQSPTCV
Experimental: as §3, with “positive. […]. […]” for “positive.”

CYSLTR1 = molecular target: T6, CYSLTR1 (Homo sapiens, UniProt Q9Y271); assay: NanoBRET screen HiBiT-CYSLTR1 in HEK293
T6 construct: purchased Promega (in-house HiBiT-GPCR construct library, NanoBRET)
T6 sequence (Q9Y271 1-337): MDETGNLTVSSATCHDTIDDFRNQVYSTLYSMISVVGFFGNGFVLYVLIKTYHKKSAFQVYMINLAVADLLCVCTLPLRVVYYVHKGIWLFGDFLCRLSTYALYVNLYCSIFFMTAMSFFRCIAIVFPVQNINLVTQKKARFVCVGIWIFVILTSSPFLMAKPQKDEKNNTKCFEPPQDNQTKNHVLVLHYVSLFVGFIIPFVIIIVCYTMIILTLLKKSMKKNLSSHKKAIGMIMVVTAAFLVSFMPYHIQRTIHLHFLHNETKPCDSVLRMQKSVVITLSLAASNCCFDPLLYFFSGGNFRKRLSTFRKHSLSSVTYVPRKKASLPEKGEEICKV
Experimental: as §3, with “positive. […]. […]” for “positive.”

TACR1 = molecular target: T7, TACR1 (Homo sapiens, UniProt P25103); assay: NanoBRET screen HiBiT-TACR1 in HEK293
T7 construct: purchased Promega (in-house HiBiT-GPCR construct library, NanoBRET)
Experimental: as §3, with “positive. […]. […]” for “positive.”

- NanoBRET Fold Response (MC5R; 0.1μM): 1.03
Compound: CCOC(=O)c1cc(C#N)c(N2CCC(C(=O)NS(=O)(=O)Cc3ccccc3/C=C/C(=O)NCCNC(=O)CCc3ccc4n3[B-](F)(F)[N+]3=C(c5ccc[nH]5)C=CC3=C4)CC2)nc1C [AZD1283-1-NB590]

- NanoBRET Fold Response (ADRA1D; tracer 1μM): 1.03
Compound: N#CN=C(NCCCOc1cccc(CN2CCCCC2)c1)NCCNC(=O)CCOCCOCCOCCOCCNC(=O)CCc1ccc2n1[B-](F)(F)[N+]1=C(c3ccc[nH]3)C=CC1=C2 [Aminopotentidine-2-NB590]

Compound: CN(C)CCC=C1c2ccccc2CCc2ccc(C(=O)NCCNC(=O)CCOCCOCCOCCOCCNC(=O)CCc3ccc4n3[B-](F)(F)[N+]3=C(c5ccc[nH]5)C=CC3=C4)cc21 [Amitriptyline-b-2-NB590]
- NanoBRET Fold Response (NPFFR1; tracer at 1μM): 1.03

- NanoBRET Fold Response (NPFFR1; 0.1μM tracer): 1.03
Compound: COc1ccc2[nH]c(-c3ccc(CNC(=O)CCOCCOCCOCCOCCNC(=O)CCc4ccc5n4[B-](F)(F)[N+]4=C(c6ccc[nH]6)C=CC4=C5)cc3)c(CCNC(C)=O)c2n1 [AzomelatoninICO9-2-NB590]

- NanoBRET Fold Response (MC5R; 1μM tracer): 1.03
- NanoBRET Fold Response (NPFFR1; NPFFR1, 0.1μM tracer): 1.03
Compound: O=C(CCOCCOCCOCCOCCNC(=O)CCc1ccc2n1[B-](F)(F)[N+]1=C(c3ccc[nH]3)C=CC1=C2)NCCCN1CCN(C2=Nc3cc(Cl)ccc3Nc3ccccc32)CC1 [Clozapine-a-2-NB590]

Compound: CN1CCN(C2=Nc3cc(Cl)ccc3Nc3ccc(CNC(=O)CCOCCOCCOCCOCCNC(=O)CCc4ccc5n4[B-](F)(F)[N+]4=C(c6ccc[nH]6)C=CC4=C5)cc32)CC1 [Clozapine-b-2-NB590]
- NanoBRET Fold Response (CHRM5): 1.04

Compound: CN1CCN(C2=Nc3cc(Cl)ccc3N(CC(=O)NCCOCCOCCOCCOCCNC(=O)CCc3ccc4n3[B-](F)(F)[N+]3=C(c5ccc[nH]5)C=CC3=C4)c3ccccc32)CC1 [Clozapine-c-2-NB590]
- NanoBRET Fold Response (FZD10): 1.03

Compound: O=C(CCOCCOCCOCCOCCNC(=O)CCc1ccc2n1[B-](F)(F)[N+]1=C(c3ccc[nH]3)C=CC1=C2)NCCCN1CCN(C2=Nc3ccccc3Oc3ccc(Cl)cc32)CC1 [Loxapine-a-2-NB590]
- NanoBRET Fold Response (MC5R; tracer 1μM): 1.03

Compound: COc1ccccc1N1CCN(CCCCN2C(=O)c3ccc(CNC(=O)CCOCCNC(=O)c4ccc(CNC(=O)CCc5ccc6n5[B-](F)(F)[N+]5=C(c7ccc[nH]7)C=CC5=C6)cc4)cc3C2=O)CC1 [NAN-190-3-NB590]
- NanoBRET Fold Response (ADRA1D; tracer 0.1μM): 1.03

Compound: O=C(CCc1ccc2n1[B-](F)(F)[N+]1=C(c3ccc[nH]3)C=CC1=C2)NCc1ccc(C(=O)NCCOCCOCCNCC(O)COc2cccc3ccccc23)cc1 (centres unmarked) [Propranolol-3-NB590]
- NanoBRET Fold Response (CYSLTR1; 1μM): 1.03

Compound: CCCn1c(=O)c2[nH]c(-c3ccc(OCC(=O)NCCNC(=O)CCOCCNC(=O)c4ccc(CNC(=O)CCc5ccc6n5[B-](F)(F)[N+]5=C(c7ccc[nH]7)C=CC5=C6)cc4)cc3)nc2n(CCC)c1=O [XAC-3-NB590]
- NanoBRET Fold Response (TACR1; tracer 0.1μM): 1.03
- NanoBRET Fold Response (TACR1; tracer 1μM): 1.03
- NanoBRET Fold Response (CYSLTR1; tracer 0.1μM): 1.03
